Experimental data published in publication PMC11819963, “In Vitro CO-Releasing and Antioxidant Properties of Sulfonamide-Based CAI-CORMs in a H2O2-Stimulated Human Achilles Tendon-Derived Cell Model” (Molecules, 2025).

Protein sequences, listed by entry. Tags and fused reporters are not part of them. Lines headed by an entry give the natural chain unless they say otherwise; changes in a name come on top.
UniProt P00915: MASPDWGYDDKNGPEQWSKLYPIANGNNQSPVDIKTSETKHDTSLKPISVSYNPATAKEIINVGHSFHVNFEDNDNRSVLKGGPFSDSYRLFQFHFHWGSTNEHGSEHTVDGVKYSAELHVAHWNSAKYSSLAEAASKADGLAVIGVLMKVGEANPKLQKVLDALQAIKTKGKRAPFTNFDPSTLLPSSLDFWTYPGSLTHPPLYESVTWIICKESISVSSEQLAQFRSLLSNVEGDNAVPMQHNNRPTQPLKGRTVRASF

How the values were obtained:
hCA II = hCA II (Homo sapiens, UniProt P00918); assay: stopped-flow CO2 hydrase assay, hCA II; type: biochemical; settings: mean from three assays, errors ±5–10%
Method: The CO2 concentrations ranged from 1.7 to 17 mM for the determination of the kinetic parameters and inhibition constants. […] The uncatalysed rates were determined in the same manner and subtracted from the total observed rates. […] The inhibition constants were obtained by non-linear least-squares methods using PRISM 3 and the Cheng–Prusoff equation and represent the mean from at least three different determinations.

hCA I = hCA I (Homo sapiens, UniProt P00915); settings: stopped-flow CO2 hydrase assay; cells marked a; cited from earlier work

4-(Diprop-2′-ynylamino)benzenesulfonamide hexacarbonyldicobalt [1c]
Ki (hCA II): 165 nM
Ki (hCA I): 876 nM
